Assay results as given in publication PMC4411481, “Cyclic nucleotide binding and structural changes in the isolated GAF domain of Anabaena adenylyl cyclase, CyaB2” (PeerJ, 2015).
This is a selection: effects in other tests are not listed, and their absence says nothing.

Legend:
[1] = test system: HEK293T cells expressing the GAFb sensor; test: Cellular BRET assay, GAFb sensor; format: cell-based, Human; conditions: 100 µM; forskolin 5 min, SNP 2 min, 37 °C
HEK293T cells = test: Intracellular cNMP estimation by radioimmunoassay; format: cell-based, Human; conditions: 100 µM SNP, 2 min
Experimental: Intracellular levels of cyclic nucleotide monophosphates (cNMP) were measured from the cells used for BRET measurements, or […] transfected and treated cells. Cells were lysed in 0.1 N HCl and cNMP was measured by radioimmunoassay as described earlier ([Bakre, […], 2000]).

sodium nitroprusside
change in BRET ratios in live cells [1]: no significant changes | intracellular levels of cGMP (HEK293T cells): increased intracellular levels
